One molecule from ChEMBL document CHEMBL1150250, “New R/S-3,4-dihydro-2,2-dimethyl-6-halo-4-(phenylaminothiocarbonylamino)-2H-1-benzopyrans structurally related to (+/-)-cromakalim as tissue-selective pancreatic beta-cell K(ATP) channel openers” (Bioorg Med Chem, 2008) can be followed below.

A short description of this test: Inhibition of glucose-induced insulin secretion in Wistar rat pancreatic beta islets assessed as residual insulin secretion at 1 uM relative to control. It is filed as functional. The method, boiled down: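 Groups of 10 islets from adult fed Wistar rats were preincubated for 30 min at 37 °C in bicarbonate salt medium with 2.8 mM glucose and 0.5% albumin, gassed with O2/CO2. They were then incubated for 90 min in the same medium with 16.7 mM glucose plus drug. Insulin was measured by radioimmunoassay and expressed as % of drug-free 16.7 mM glucose control. Values are mean ± SEM (n).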

`CC(N/C(=N\C#N)Nc1ccncc1)C(C)(C)C` (racemic) [PINACIDIL ANHYDROUS]: the Activity is 97.7%.
